This passage reports Wirkung and Abtötungsgrad results from EP0417558A2, “S-haloalkyl(di)(tri)(thio)phosphoric(phosphonic)acid(amide) esters” (dated 1991).

One series has as its system Musca domestica. Briefly: Impregnated filter paper test with flies (Example C). To be noted: 1000 ppm, adults on impregnated filter paper.
The subject of another series is Blattella germanica. Put plainly: Impregnated filter paper test with cockroaches (Example C). The note with it: 1000 ppm; Blatella germanica; adults on impregnated filter paper.
The subject of the next series is Sitophilus granarius. Put plainly: Impregnated filter paper test with grain weevils (Example C). The note with it: 1000 ppm, adults on impregnated filter paper.
Series [1] relates to Lucilia cuprina resistent-Larven. Briefly: Test with resistant Lucilia cuprina larvae. The note with it: 1000 ppm; after 24 h.

On to `CCOP(=S)(NC(C)C)SC(C)(F)F` (racemic), for which the Wirkung in the series with Musca domestica, with Blattella germanica and in the series on Sitophilus granarius was 100% each time. The compound also came in with an Abtötungsgrad in series [1] of 100%.
In the case of `CCOP(=S)(SC(C)(F)F)N(C)C` (racemic), the Abtötungsgrad in series [1] came out at 100%.
